Values of other authors, collected in patent publication US20200383906A1 (Evestra, Inc., priority 2019, published 2020).

Tested on: SHBG
Details: therapeutic vaginal application of 1.0 mg estriol; cited from earlier work

Structure (SMILES): C[C@]12CC[C@@H]3c4ccc(O)cc4CC[C@H]3[C@@H]1C[C@@H](O)[C@@H]2O [estriol]
- Increase in SHBG: no increase in SHBG
